Experiment: Excitation spectrum of h-FTAA with pure insoluble microcrystalline cellulose suspensions
Conditions: microcrystalline cellulose 6.25-0.0488 mg/ml, 3 μM h-FTAA, excitation ~480 nm, emission 545 nm

Compound: O=C(O)Cc1cc(-c2ccc(-c3ccc(C(=O)O)s3)s2)sc1-c1ccc(-c2sc(-c3ccc(-c4ccc(C(=O)O)s4)s3)cc2CC(=O)O)s1 [h-FTAA, hepta Formic Thiophene Acetic Acid]
- signal intensity versus cellulose concentration: increased proportionally with cellulose concentration

Reference: patent US9958439B2, “Carbohydrate detection” (RICHTER LIFE SCIENCE DEVELOPMENT AB, priority 2012, dated 2018)
